Test results reported in patent US9493436B2, “Tyrosine phosphatase inhibitors and uses thereof to modulate the activity of enzymes involved in the pathology of Mycobacterium tuberculosis” (priority 2011, dated 2016).

Sequences of proteins named here, by UniProt entry; tags and fusion partners are left off.
UniProt P51452, whole entry, species assumed: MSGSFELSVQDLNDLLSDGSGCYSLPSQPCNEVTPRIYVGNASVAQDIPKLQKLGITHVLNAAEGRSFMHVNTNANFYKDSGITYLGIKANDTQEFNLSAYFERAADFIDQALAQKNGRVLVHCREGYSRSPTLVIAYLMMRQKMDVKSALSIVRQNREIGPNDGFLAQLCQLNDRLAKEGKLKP
UniProt Q06124, whole entry, species assumed: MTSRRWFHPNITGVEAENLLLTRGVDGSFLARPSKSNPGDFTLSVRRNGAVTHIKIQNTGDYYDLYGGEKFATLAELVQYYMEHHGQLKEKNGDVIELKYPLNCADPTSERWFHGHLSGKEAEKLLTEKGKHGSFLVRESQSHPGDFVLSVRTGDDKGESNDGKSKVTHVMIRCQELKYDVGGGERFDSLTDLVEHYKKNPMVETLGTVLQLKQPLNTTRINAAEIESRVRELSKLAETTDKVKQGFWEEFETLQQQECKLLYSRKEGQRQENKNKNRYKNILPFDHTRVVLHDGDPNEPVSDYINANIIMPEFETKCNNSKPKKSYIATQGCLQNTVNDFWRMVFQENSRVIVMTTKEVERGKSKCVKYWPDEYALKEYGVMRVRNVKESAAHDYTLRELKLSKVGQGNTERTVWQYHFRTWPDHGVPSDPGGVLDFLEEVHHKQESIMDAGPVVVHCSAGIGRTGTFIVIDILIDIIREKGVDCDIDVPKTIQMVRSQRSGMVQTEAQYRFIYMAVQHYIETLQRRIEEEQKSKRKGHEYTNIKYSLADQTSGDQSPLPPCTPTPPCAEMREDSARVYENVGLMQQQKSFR

What was measured:
[1] = biological target: T1, VHX (Homo sapiens, UniProt Q9NRW4); type: biochemical
T1 sequence (Q9NRW4 1-184): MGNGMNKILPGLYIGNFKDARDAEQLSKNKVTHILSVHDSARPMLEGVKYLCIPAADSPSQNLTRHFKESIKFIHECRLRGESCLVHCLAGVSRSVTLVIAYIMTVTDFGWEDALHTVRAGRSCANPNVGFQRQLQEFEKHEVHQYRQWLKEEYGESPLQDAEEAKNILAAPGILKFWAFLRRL

[2] = biological target: T2, LMWPTP (Homo sapiens, UniProt P24666); test: PTP selectivity panel: LMWPTP; type: biochemical
T2 sequence (P24666 1-158): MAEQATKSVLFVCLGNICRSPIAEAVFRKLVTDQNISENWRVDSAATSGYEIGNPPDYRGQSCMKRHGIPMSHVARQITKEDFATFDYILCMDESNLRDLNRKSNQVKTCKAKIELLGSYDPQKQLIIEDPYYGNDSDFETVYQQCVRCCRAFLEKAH

[3] = biological target: T3, HePTP (Homo sapiens, UniProt P35236); type: biochemical
T3 sequence (P35236 1-360): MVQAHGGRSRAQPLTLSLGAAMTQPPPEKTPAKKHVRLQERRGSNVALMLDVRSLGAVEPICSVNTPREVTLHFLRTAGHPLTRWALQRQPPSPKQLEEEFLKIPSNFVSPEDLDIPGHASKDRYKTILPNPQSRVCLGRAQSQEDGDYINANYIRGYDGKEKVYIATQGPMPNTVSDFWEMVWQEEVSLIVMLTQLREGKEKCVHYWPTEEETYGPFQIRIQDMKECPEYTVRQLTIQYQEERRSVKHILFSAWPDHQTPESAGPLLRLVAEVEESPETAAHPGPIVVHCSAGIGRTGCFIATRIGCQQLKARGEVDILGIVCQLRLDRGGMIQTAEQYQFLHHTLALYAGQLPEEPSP

[4] = biological target: VHR (Homo sapiens, UniProt P51452); details: read-out: IC50 (μM) VHR
[5] = biological target: SHP2 (Homo sapiens, UniProt Q06124); details: read-out: IC50 (μM) SHP2

O=C(O)c1cc2c(C#Cc3cc(F)cc(F)c3)c(-c3ccccc3)oc2cc1O [31 (L01Z06)]
IC50 [1]: 2.9 ± 0.3 µM
IC50 [2]: 2.9 ± 0.3 µM

O=C(O)c1cc2c(C#Cc3cccc(C(F)(F)F)c3)c(-c3ccccc3)oc2cc1O [32 (L01Z08)]
IC50 [3]: 2.1 ± 0.3 µM

O=C(O)c1cc2c(C#Cc3ccc(OC(F)(F)F)cc3)c(-c3ccccc3)oc2cc1O [33 (L01Z09)]
IC50 [4]: 2.1 ± 0.2 µM
IC50 [5]: 1.8 ± 0.6 µM
